## Measured affinities in a library of Ab-91 heavy chain variants

The measurements come from Engelhart et al. 2022 (doi:10.1038/s41597-022-01779-4) through the FLAb antibody collection.

The target is the same throughout: PDVDLGDISGINAS, from the HR2 region of SARS-CoV-2 spike.

The variants keep the light chain, the linker and the frameworks of Ab-91 (scFv order VL, a 15-residue (Gly4Ser)3 linker, VH).
VL: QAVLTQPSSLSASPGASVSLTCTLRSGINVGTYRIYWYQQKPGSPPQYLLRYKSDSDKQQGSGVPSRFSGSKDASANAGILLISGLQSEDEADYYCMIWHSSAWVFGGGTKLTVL
VH: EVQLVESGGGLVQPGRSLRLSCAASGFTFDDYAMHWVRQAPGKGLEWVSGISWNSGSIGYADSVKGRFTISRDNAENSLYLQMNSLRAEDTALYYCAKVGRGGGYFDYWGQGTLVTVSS

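The parent was found by panning a naive human phage display library on the peptide. Library AAYL51 holds single substitutions and randomly drawn double and triple substitutions in the CDRs. Affinity was read by AlphaSeq, a pooled yeast mating assay with surface-displayed partners. Mating (16 h, 30 °C) was followed by selection of diploids and sequencing of their barcodes. Read counts were normalised to the haploid input and turned into Kd by a linear fit to BCL2-family pairs of known affinity, for each replicate. The assay was run in three technical replicates.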

Variants are written as CDR1, CDR2 and CDR3 of the heavy chain (limits as in the source). Parent: GFTFDDYAMH, GISWNSGSIGYADSVK, VGRGGGYFDY.
Numbers give log10(Kd / nM), so 0 is 1 nM and 3 is 1 µM. Smaller is tighter.
The mean shown is taken over the replicates in which the pair was detected.
An entry "nd" has no value in the source: the pair was not observed among the diploids in any replicate. This suggests poor binding but is not conclusive.
Nonspecific signal, from three strains lacking the peptide, appeared in 21% of pairings of library AAYL51, centred on 4.54 (5% of these signals below 3.26); values are not corrected for it. For each scFv, signals with the empty controls are counted beside the result.

With GFTFDDYAPH / GIEWNSGGIGYADSVK / VGRGGGYFDY the result was 5.21 (3 of 3 replicates; controls 8 of 9).
With AFVFDDYHMH / GISWNSGSIGYADSVK / VGRGGGYFDY the result was nd (0 of 3 replicates; controls 0 of 9).
With WFTFDDYEMH / GISWNSGSIGYADSKK / VGRGGGYFDY the result was nd (0 of 3 replicates; controls 1 of 9).
With GFTFDDTAMH / GISHNSGSIGYADSVK / VGRGGGYFDY the result was 0.52 (3 of 3 replicates; controls 2 of 9).
With GFTFDERAMH / GISWNSGSIGNADSVK / VGRGGGYFDY the result was nd (0 of 3 replicates; controls 0 of 9).
With GFTFDDYAMH / GIPWNSMSIGYADSVK / VGRGGGYFDY the result was nd (0 of 3 replicates; controls 1 of 9).
With GFTFDDYAVH / GISWNSGSQPYADSVK / VGRGGGYFDY the result was 4.72 (1 of 3 replicates; controls 0 of 9).
With GFTFDSYALH / GISWNSGSIGYADSVK / VGRGGKYFDY the result was 6.36 (1 of 3 replicates; controls 2 of 9).
With GFTFDDYAMH / GISWNMGSIGYADSLK / VGRGGGYFFY the result was nd (0 of 3 replicates; controls 1 of 9).
With GGTFDDYAMH / GISYNSGSILYADSVK / VGRGGGYFDY the result was nd (0 of 3 replicates; controls 3 of 9).
With GFTFMDYAMH / MISWNSGSIGYADSVK / VGRGGGTFDY the result was nd (0 of 3 replicates; controls 0 of 9).
With GFTFDDYNMH / GISWNSGSIGYADFVK / VGRGGGYFDY the result was nd (0 of 3 replicates; controls 0 of 9).
With MFTFDDYAMH / GISWNSGSITYADSVK / VGRGGGYFDG the result was 4.58 (2 of 3 replicates; controls 5 of 9).
With GFTFDDYYMH / GISWNSGSIGYADYRK / VGRGGGYFDY the result was 4.99 (1 of 3 replicates; controls 0 of 9).
With GFTFDDYAPH / GISWNSGSIGYADLVK / VGRGGPYFDY the result was 4.55 (3 of 3 replicates; controls 5 of 9).
With GFTFDDYAMH / GISWNVGSIGYACSVK / VSRGGGYFDY the result was nd (0 of 3 replicates; controls 0 of 9).
With GFTFDDYAMH / GISRFSGIIGYADSVK / VGRGGGYFDY the result was 3.68 (1 of 3 replicates; controls 2 of 9).
With GFTFDDYAMH / GISWNSATIGWADSVK / VGRGGGYFDY the result was 5.38 (1 of 3 replicates; controls 2 of 9).
With GFTCDDYAMH / GISWNSGSCGYADSVK / TGRGGGYFDY the result was 6.08 (1 of 3 replicates; controls 1 of 9).
With GFTFDDFAMH / GISWNSGGIGYADSVK / VGRGGGYFFY the result was 2.86 (3 of 3 replicates; controls 4 of 9).
With GFTFDDYAMH / GITWNSGSNGYADSVF / VGRGGGYFDY the result was 4.85 (2 of 3 replicates; controls 2 of 9).
With AFTFDDYAMH / GISWNSGSIGAADSVK / VGRGGGYMDY the result was 4.13 (1 of 3 replicates; controls 3 of 9).
With GRTFDDYAMH / GSSWNSGSIGYADSVK / TGRGGGYFDY the result was 4.47 (2 of 3 replicates; controls 1 of 9).
With GFTFDPYAMH / GISWNSGSIGYADSSK / VGVGGGYFDY the result was nd (0 of 3 replicates; controls 0 of 9).
With GFPFDDYANH / GISWNSGSIGYADFVK / VGRGGGYFDY the result was 3.72 (1 of 3 replicates; controls 1 of 9).
With GFTFDDYAMH / GISWNSGKIGYADSVD / VGRQGGYFDY the result was nd (0 of 3 replicates; controls 0 of 9).
With GFHFDDYAMH / GISWNSGSIGYADWVK / VGRGGGYFQY the result was 2.39 (1 of 3 replicates; controls 0 of 9).
With GFTFDMYAMH / GISWNSGFIGYADSVK / VGRGGTYFDY the result was 4.06 (2 of 3 replicates; controls 6 of 9).
With GETFDVYAMH / GISWNSGSIGYADSQK / VGRGGGYFDY the result was nd (0 of 3 replicates; controls 0 of 9).
With GFTFDDYAMH / GSSWNSGSIGYADSVK / VQRGGGYFDY the result was nd (0 of 3 replicates; controls 0 of 9).
With GFTFDDYAMH / GISWNSGSIGFADSVK / VGRGYGYFDY the result was 4.66 (1 of 3 replicates; controls 1 of 9).
With GFNFDDYAMH / GISWNSGSIGYADSVK / VGRGGQYFDY the result was 4.50 (1 of 3 replicates; controls 1 of 9).
With GFTLDDYAMH / GISWNSGSIGYADSVK / VGKGGGYFDY the result was nd (0 of 3 replicates; controls 1 of 9).
With GFTFDDYAMH / GISYNTGSIGYADDVK / VGRGGGYFDY the result was 1.26 (3 of 3 replicates; controls 5 of 9).
With GFTFYDYAMH / GISWNSGSIGYADDVK / VGRGGGYFDV the result was 0.59 (3 of 3 replicates; controls 2 of 9).

For reference, 3 entries of the list once more:

{"CDR-H1": "GFTFDDYAMH", "CDR-H2": "GISWNSATIGWADSVK", "CDR-H3": "VGRGGGYFDY", "mean log10 Kd (nM)": "5.38", "seen in": "1 of 3", "signal with controls": "2 of 9"}
{"CDR-H1": "GFTCDDYAMH", "CDR-H2": "GISWNSGSCGYADSVK", "CDR-H3": "TGRGGGYFDY", "mean log10 Kd (nM)": "6.08", "seen in": "1 of 3", "signal with controls": "1 of 9"}
{"CDR-H1": "GFTLDDYAMH", "CDR-H2": "GISWNSGSIGYADSVK", "CDR-H3": "VGKGGGYFDY", "mean log10 Kd (nM)": "nd", "seen in": "0 of 3", "signal with controls": "1 of 9"}